Test results reported in US12616680B2, “Combined use of biotin and thiamine in the treatment of huntington's disease” (CONSEJO SUPERIOR DE INVESTIGACIONES CIENTÍFICAS (CSIC), priority 2019, dated 2026).

Test system: R6/1 mice
Settings: oral in drinking water from 3 weeks of age, open field at 13 weeks, rotarod at 18 weeks, biotin 10 mg/kg/day or thiamine 200 mg/kg/day, given separately, FIG. 6A-B

O=C(O)CCCC[C@@H]1SC[C@@H]2NC(=O)N[C@@H]21 [biotin]
effect on hypoactivity (open field, distance covered) and motor coordination deficit (rotarod, time to fall): only showed improving trends in some of the behavioural tests
